Screening data (PubChem BioAssay)
ELG1 repair inh: qHTS screen for small molecules that inhibit ELG1-dependent DNA repair in human embryonic kidney (HEK293T) cells expressing luciferase-tagged ELG1; HEK293T ELG1-luciferase reporter, luminescence, 16 h; DNA damage induced by 5-fluorouridine; Potency, µM (doses to about 46.1 µM), most hits filed as inhibitors; 2.3% of 330,000 active; AID 504467, 2011; also: nearly all actives have a fitted effect of over 55% in size
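Quantitative HTS, concentration-response format. 2,000 cells/well co-treated with 5-fluorouridine and compound, 16 hr in 5% CO2 at 37 °C; ONE-Glo luminescence read after 30 min.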
Tb PFK inh: qHTS Assay to Find Inhibitors of T. brucei phosphofructokinase; ATP-dependent 6-phosphofructokinase (Trypanosoma brucei brucei), O15648; T. brucei PFK, ADP-Glo luminescence; Potency, µM (series often up to 57.5 µM), usual class: inhibitors; 0.17% of 330,000 active; also: nearly all actives have a fitted effect of over 60% in size
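In TEA buffer at pH 8.0 with 5 mM MgCl2, enzyme (1.25 nM) converted F6P (0.5 mM) and ATP (0.1 mM) for 45 min at room temperature. ADP product was read by luciferase luminescence.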
Rango-impB inh: qHTS Assay for Inhibitors of Rango (Ran-regulated importin-beta cargo) - Importin beta complex formation | Rango CFP/YFP FRET sensor + importin beta, 45 min | 0.031% of 340,000 active | Potency, µM (highest dose often 92.2 µM); calls by dose curve; also: nearly all actives have a fitted effect of over 15% in size
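FRET biosensor (snurportin 1 IBB flanked by EYFP and cerulean), 50 nM, with compound 5 min, then 0.125 microM importin beta in PBS, 1 mM DTT, 0.02% Tween-20, 0.1% BSA. CFP/YFP ratio read after 45 min at room temperature; pre-read flags interference.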
Rango release inh: qHTS Assay for Inhibitors of RanGTP induced Rango (Ran-regulated importin-beta cargo) - Importin beta complex dissociation. Snurportin-1 (Homo sapiens) + GTP-binding nuclear protein Ran (Homo sapiens) + Importin …. Biochemical FRET Rango-importin beta, RanGTP-induced dissociation. Potency, µM (titrated, usually from 46.1 µM). 0.071% of 340,000 active; calls by dose curve; also: nearly all actives have a fitted effect of over 45% in size
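Rango (0.1 uM)–importin beta (0.25 uM) complex; RanGTP-RCC1 trigger; 45 min RT; CFP/YFP FRET read.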
PKM2 act: qHTS Assay for Activators of Human Muscle isoform 2 Pyruvate Kinase; Pyruvate kinase PKM (Homo sapiens), P14618; purified PKM2, Kinase-Glo ATP luminescence, activation; response scale: 0% is enzyme alone, no compound; Potency, µM (titrated, usually from 57.5 µM), usual class: activators; 0.34% of 260,000 active; also: nearly all actives have a fitted effect of over 55% in size
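Purified hPK-M2 (>95%) run at intermediate activity with 0.1 mM ADP and 0.5 mM PEP in 50 mM imidazole pH 7.2, KCl, MgCl2; 1 h room temperature. ATP formed read by Kinase-Glo luminescence; normalized to uninhibited and no-enzyme controls.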
PGK inhibitor: qHTS Assay to Find Inhibitors of Phosphoglycerate Kinase. Phosphoglycerate kinase, glycosomal (Trypanosoma brucei brucei), P07378. PGK/GAPDH coupled, Kinase-Glo luminescence, 60 min. Potency, µM (titrated, usually from 57.5 µM), usual class: inhibitors. 0.043% of 380,000 active. AID 602233, 2012; also: nearly all actives have a fitted effect of over 60% in size
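Luminescent ATP detection (Kinase-Glo Plus) follows a 60-minute room-temperature incubation, with wells lacking PGK as controls. Buffer: 100 mM TEA (pH 7.6), 5 mM MgCl2, 0.01% Tween-20. Coupling enzyme GAPDH (100 nM final) supplies unstable 1,3-BPG in-well.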
Of the large screens only hits and unclear results are named; the others gave an inactive call. The list is not random: actives were taken first. Their share in the collection is about 2.4%. Unless noted, calls follow the shape of the dose curve; as a rule, active = well fitted curve in the direction sought with a large enough effect; inconclusive = small, poorly fitted or top-dose-only effect, or another doubt; inactive = no such curve, though single readings can be large; an effect the other way counts as inactive or inconclusive.

Protein sequences, listed by entry. Tags and fused reporters are not part of them.
Pyruvate kinase PKM (Homo sapiens), P14618, UniProt P14618, whole entry, looked up: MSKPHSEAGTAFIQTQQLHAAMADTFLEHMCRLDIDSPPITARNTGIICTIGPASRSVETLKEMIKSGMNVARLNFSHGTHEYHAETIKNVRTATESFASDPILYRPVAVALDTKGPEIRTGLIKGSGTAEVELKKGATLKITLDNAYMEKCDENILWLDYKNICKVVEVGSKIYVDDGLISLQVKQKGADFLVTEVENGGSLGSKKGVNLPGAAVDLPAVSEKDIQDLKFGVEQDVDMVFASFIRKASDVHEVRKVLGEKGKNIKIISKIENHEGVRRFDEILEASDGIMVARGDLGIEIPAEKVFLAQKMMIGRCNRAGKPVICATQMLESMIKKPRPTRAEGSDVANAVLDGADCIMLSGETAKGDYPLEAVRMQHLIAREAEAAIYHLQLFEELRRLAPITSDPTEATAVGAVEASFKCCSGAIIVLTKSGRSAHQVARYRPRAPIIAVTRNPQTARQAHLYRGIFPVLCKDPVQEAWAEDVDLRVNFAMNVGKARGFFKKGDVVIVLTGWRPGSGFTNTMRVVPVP

COc1ccc(CCCc2nnc(SCC(=O)Nc3ccc(C)cc3)o2)cc1C	none (no result: ELG1 repair inh, Tb PFK inh, Rango-impB inh, Rango release inh, PKM2 act)
COc1ccc(CCNC(=O)CCN2C(=O)c3cccc4cccc(c34)C2=O)cc1OC	none
COc1cc(CCN2C(=O)c3cccc4cccc(c34)C2=O)c(S(=O)(=O)N2CCC(C)CC2)cc1OC	ELG1 repair inh 21µM
COc1cc(CCN2C(=O)c3cccc4cccc(c34)C2=O)c(S(=O)(=O)NCCCO)cc1OC	ELG1 repair inh 5.8µM
COc1cc(CCN2C(=O)c3cccc4cccc(c34)C2=O)c(S(=O)(=O)NCCO)cc1OC	ELG1 repair inh 4.6µM
O=C(CCCCCN1C(=O)c2cccc3cccc(c23)C1=O)NCCCO	none
COc1cc(CCN2C(=O)c3cccc4cccc(c34)C2=O)c(S(=O)(=O)N2CCCCCC2)cc1OC	ELG1 repair inh inconclusive
CN(C)C(=O)CN1CCN(Cc2cn(C)nc2-c2ccc3c(c2)OCCO3)CC1	none
CCNc1nc(NCC)nc(OCCOC(=O)c2ccccc2)n1	PKM2 act 14µM
CCNc1nc(NCC)nc(OCCOC(=O)Nc2ccccc2)n1	none
O=S(Cc1ccc(Br)cc1)Cc1nnc(SCc2c(F)cccc2Cl)n1-c1ccccc1 (stereo not given)	ELG1 repair inh 23µM
Oc1ccc2ccccc2c1C=Nc1ccc(N2CCOCC2)cc1	Rango-impB inh 37µM, Rango release inh inconclusive
C=Cc1ccc(N=Cc2c(O)ccc3ccccc23)cc1	Rango-impB inh inconclusive (no result: PKM2 act)
C=Cc1c(C)c2cc3[nH]c(cc4nc(cc5nc(cc1[nH]2)C(C)=C5CCC(=O)O)C(CCC(=O)O)=C4C)c(C)c3C=C	Tb PFK inh inconclusive, Rango-impB inh inconclusive, PGK inhibitor 10µM (no result: PKM2 act)
CCCCC(=O)Nc1nc(C)c(-c2csc(Nc3cc(Cl)ccc3OC)n2)s1	ELG1 repair inh inconclusive, Rango-impB inh inconclusive
CCCCC(=O)Nc1nc(C)c(-c2csc(Nc3cc(OC)ccc3OC)n2)s1	ELG1 repair inh 18µM
CC(C)N(Cc1ccccc1)C(=S)Nc1ccccc1F	none
Cc1cccc(C2=NC(C(F)(F)F)(C(F)(F)F)c3c(n(-c4ccc(F)cc4)c(=O)[nH]c3=O)N2)c1	ELG1 repair inh 9.2µM
COc1cccc(NC(=O)N2CCN(c3nc(-c4cccc(OC)c4)cs3)CC2)c1	ELG1 repair inh 15µM
COc1cccc(-c2csc(N3CCN(C(=O)NC45CC6CC(CC(C6)C4)C5)CC3)n2)c1	ELG1 repair inh 23µM
COc1ccc(-c2csc(NC(=O)CCn3cnc4ccccc4c3=O)n2)cc1OC	ELG1 repair inh 7.3µM (no result: PGK inhibitor)
COc1ccc(CNC(=O)C2CCN(C(=O)c3ccc(F)cc3)CC2)cc1OC	none (no result: PKM2 act)
COc1ccc(-c2csc(NC(=O)C3CCN(C(=O)c4ccc(F)cc4)CC3)n2)cc1OC	ELG1 repair inh 15µM
COc1ccc(NC(=O)C(=O)NCCC2CCCCN2S(=O)(=O)c2ccc(F)cc2)cc1 (stereo not given)	ELG1 repair inh inconclusive (no result: PKM2 act)
CCN(CC(=O)Nc1ccc(NC(C)=O)cc1)C(=O)CCCc1nc2ccccc2c(=O)[nH]1	none (no result: PKM2 act)
OC(C1=CC(=Cc2ccncc2)c2ccccc21)c1ccncc1 (stereo not given)	none (no result: ELG1 repair inh, Tb PFK inh, PKM2 act)
CCCCOc1ccccc1C(=O)Nc1nonc1-c1ccccc1	none (no result: ELG1 repair inh, Tb PFK inh, Rango-impB inh, Rango release inh, PKM2 act)
Cc1ccccc1-c1nc(CNC(=O)NC2CCCCC2)c(C)o1	none (no result: ELG1 repair inh, Tb PFK inh, Rango-impB inh, Rango release inh, PKM2 act)
O=C(CCC1N=C2c3ccccc3N=C(SCc3ccc(Cl)cc3)N2C1=O)NCc1cccs1 (stereo not given)	none (no result: ELG1 repair inh, Tb PFK inh, Rango-impB inh, Rango release inh, PKM2 act)
COc1cccc(NC(=O)Nc2nc(-c3ccc(OC)c(OC)c3)cs2)c1	ELG1 repair inh 4.1µM
N/C(=N\OC(=O)c1ccccc1Cl)c1ccncc1	ELG1 repair inh 23µM
COc1ccc(C(=O)NCc2nnc(SCC(=O)N3CCc4ccccc43)n2CCc2ccccc2)cc1	ELG1 repair inh 15µM
CCOC(=O)c1c(C)n(C)c2ccc(OCC(O)CN3CCN(C)CC3)cc12 (stereo not given)	none
CCOC(=O)c1c(C)n(C)c2ccc(OCC(O)Cn3c(C)nc4ccccc43)cc12 (stereo not given)	ELG1 repair inh 12µM, Rango-impB inh inconclusive
CN(CC(=O)Nc1cccc(F)c1)C(=O)C1(c2ccccc2)CC1	none (no result: PKM2 act)
Cc1nc(N2CCN(C(=O)c3ccco3)CC2)c2c3c(sc2n1)CCC3	ELG1 repair inh 23µM
CC(C)c1nc(N2CCN(C(=O)c3ccco3)CC2)c2c3c(sc2n1)CCCC3	ELG1 repair inh inconclusive, Tb PFK inh inconclusive
O=C(c1ccccc1)N1CCN(c2ncnc3sc4c(c23)CCC4)CC1	ELG1 repair inh 9.2µM
Cc1ccc(S(=O)(=O)NCCC(=O)OCC(=O)N2CCCC2=O)cc1C	none (no result: PKM2 act)
CC(=O)CCc1oc2ccc(NC(C)=O)cc2c1-c1ccc(C)o1	ELG1 repair inh inconclusive, PKM2 act 10µM
CC(=O)c1cccc(Nc2ncnc3c2cnn3-c2cccc(Cl)c2)c1	none (no result: ELG1 repair inh, Tb PFK inh, Rango-impB inh, Rango release inh, PKM2 act)
Cc1ccc2cc(CCNC(=O)c3cccc([N+](=O)[O-])c3)c(=O)[nH]c2c1C	ELG1 repair inh 18µM
COc1ccc(OC2C(=O)N(c3cc(C)ccc3C)C2c2ccc(OC)c(OC)c2)cc1 (stereo not given)	ELG1 repair inh 18µM
C=CCn1c(N)c(C(=O)NCc2ccco2)sc1=S	PKM2 act 8.9µM
Cc1ccc(-n2c(N)c(C(=O)NCc3ccco3)sc2=S)cc1	none
CCOc1ccc(S(=O)(=O)N2CCC(C(=O)NCCc3ccc(S(N)(=O)=O)cc3)CC2)cc1	none (no result: PKM2 act)
Cc1nc2ccccc2n1CC(=O)NC1CCCCCC1	ELG1 repair inh 15µM
Cc1nc2ccccc2n1CC(=O)NC1CCCC1	none
Clc1ccc(-c2cn(-c3ccc(Cl)cc3)c3[n+]2CCCCC3)cc1	ELG1 repair inh inconclusive
COc1ccc(-n2cc(-c3ccc(OC(F)F)cc3)[n+]3c2CCCCC3)cc1	ELG1 repair inh 5.2µM
COc1ccc(-c2cn(-c3ccc(Cl)cc3)c3[n+]2CCCCC3)cc1	ELG1 repair inh 12µM
Cc1ccc(-c2nnc(NCc3nc4ccccc4[nH]3)c3ccccc23)cc1S(=O)(=O)N(C)C	ELG1 repair inh 10µM
